The experiment deals with Benz-I (protease specific for basic amino acid residue). The experiment can be described thus: Cleavage of peptides by Benz-I, HPLC and amino acid composition of fragments. The format is biochemical, Kluyveromyces lactis IFO 1903. As to conditions: 200 mU Benz-I, 25 nmol peptide, 30° C., 20 hours.

“Tyr-Gly-Gly-Phe-Met-Arg-Arg-Val-Gly-Arg-Pro-Glu-Trp-Trp-Met-Asp-Tyr-Gln-Lys-Arg-Tyr-Gly-Gly-Phe-Leu”: the “Fragment obtained (assumed from amino acid composition) after reaction with Benz-I” value is on record as “Val-Gly-Arg-Pro-Glu-Trp-Trp-Met-Asp-Tyr-Gln-Lys-^20Arg”.

For the origin of these results see patent US5053333A, “Protease” (M & D Research Co., Ltd., priority 1988, dated 1991).
